Earlier results in US20220280611A1, “SOLID COMPOSITION COMPRISING A PYY COMPOUND AND A SALT OF N-(8-(2- HYDROXYBENZOYL)AMINO)CAPRYLIC ACID” (Novo Nordisk A/S, priority 2019, published 2022).

Details: in pigs; cited from earlier work

Q: Which half-life does the source give for “PYY(3-36): PYY(1-36) cleaved by dipeptidyl peptidase IV; hPYY(3-36), SEQ ID NO:2” here?
A: < 30 min
